Assay results published in paper PMC5357622, “Chelation Motifs Affecting Metal-dependent Viral Enzymes: N′-acylhydrazone Ligands as Dual Target Inhibitors of HIV-1 Integrase and Reverse Transcriptase Ribonuclease H Domain” (Frontiers in Microbiology, 2017).

Target: HIV-1 IN in presence of LEDGF/p75 (Human immunodeficiency virus type 1 group M subtype B, UniProt P03366)
Assay: HIV-1 IN/LEDGF HTRF LEDGF-dependent integration assay

Work on `Cc1nnc(C(=O)NC(C)(C)c2nc(C(=O)NCc3ccc(F)cc3)c(O)c(=O)n2C)o1` [RAL, raltegravir, reference compound] yielded an IC50 of 58 ± 10 nM.
